Where a name gives a salt, the structure may show the parent alone.
Legend:
Format in all cases: biochemical
[1] = target: T1, Pim-2 (Homo sapiens (Human), UniProt Q9P1W9); assay: Pim-Mn enzyme assay (HTRF, 384-well), Pim-2; settings: read-out: Pim-2-Mn IC50 IP
[2] = target: T2, Pim-1 (Homo sapiens (Human), UniProt P11309); assay: Pim-Mn enzyme assay (HTRF, 384-well), Pim-1; settings: read-out: Pim-1-Mn IC50 IP
[3] = target: T2, Pim-1; assay: Pim enzyme assay (HTRF, 96-well), Pim-1; settings: full length recombinant Pim-1, biotinylated-BAD (S112) peptide, 10-point curve, 2 h RT, read-out: Pim-1 IC50 IP
[4] = target: T1, Pim-2; assay: Pim enzyme assay (HTRF, 96-well), Pim-2; settings: full length recombinant Pim-2, biotinylated-BAD (S112) peptide, 10-point curve, 45 min RT, read-out: Pim-2 IC50 IP
[5] = Pim-2 enzyme 0.5 pM, ATP 1.5 μM, BAD (S112) 0.5 μM, HTRF, 22-point curve
[6] = Pim-1 enzyme 5 pM, ATP 1.5 μM, BAD (S112) 0.5 μM, HTRF, 22-point curve

Sequences of proteins named here, by UniProt entry; tags and fusion partners are left off. A change or cut given only in a name is not applied to a line headed by its entry.
UniProt Q9P1W9: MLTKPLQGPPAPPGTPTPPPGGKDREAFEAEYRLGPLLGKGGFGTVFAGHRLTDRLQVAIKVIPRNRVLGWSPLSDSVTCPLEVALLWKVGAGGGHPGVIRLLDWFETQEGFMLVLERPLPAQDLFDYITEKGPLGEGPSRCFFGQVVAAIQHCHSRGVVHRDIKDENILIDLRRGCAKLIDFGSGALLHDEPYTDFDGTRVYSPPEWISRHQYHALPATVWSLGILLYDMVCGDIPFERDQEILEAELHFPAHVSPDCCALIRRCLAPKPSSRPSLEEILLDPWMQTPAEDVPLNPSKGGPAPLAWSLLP
UniProt P11309, whole entry: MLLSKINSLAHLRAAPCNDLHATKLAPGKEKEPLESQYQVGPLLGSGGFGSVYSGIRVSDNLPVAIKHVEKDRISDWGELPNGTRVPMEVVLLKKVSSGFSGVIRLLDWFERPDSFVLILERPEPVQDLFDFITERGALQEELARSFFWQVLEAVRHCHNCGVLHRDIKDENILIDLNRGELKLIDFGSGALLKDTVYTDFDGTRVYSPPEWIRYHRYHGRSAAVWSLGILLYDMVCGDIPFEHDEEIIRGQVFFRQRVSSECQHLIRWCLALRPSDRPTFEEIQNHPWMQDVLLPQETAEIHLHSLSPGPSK

What does the source list for `C[C@H]1NC(=O)c2cc(-c3c(F)ccc4c(=O)n(C)c(NC5(C)CC5)nc34)[nH]c21` [Example 510, (R)-7-fluoro-3-methyl-8-(6-methyl-4-oxo-1,4,5,6-tetrahydropyrrolo[3,4-b]pyrrol-2-yl)-2-((1-methylcyclopropyl)amino)quinazolin-4(3H)-one]?
IC50 [1]: 0.1 nM; IC50 [2]: 0.065 nM

What does the source list for `CC1CNC(=O)c2cc(-c3cccc4ccc(Nc5ccccc5)nc34)[nH]c21` (single isomer, unassigned) [Example 29, 7-methyl-2-(2-(phenylamino)quinolin-8-yl)-6,7-dihydro-1H-pyrrolo[3,2-c]pyridin-4(5H)-one]?
IC50 [3]: 0.5 nM; IC50 [4]: 2.4 nM

Which IC50 [1, 5] does the source give for `Cc1nc2cccc(-c3cc4c([nH]3)CCNC4=O)c2nc1NC1CCCOC1` (single isomer, unassigned) [Example 208, 2-(2-methyl-3-((tetrahydro-2H-pyran-3-yl)amino)quinoxalin-5-yl)-6,7-dihydro-1H-pyrrolo[3,2-c]pyridin-4(5H)-one] here?
The IC50 was 2.1 nM.

What does the source list for `C[C@H]1NC(=O)c2cc(-c3c(F)ccc4c(=O)n(C)c(NC5(C)CCC5)nc34)[nH]c21` [Example 502, 7-fluoro-3-methyl-2-((1-methylcyclobutyl)amino)-8-((6R)-6-methyl-4-oxo-1,4,5,6-tetrahydropyrrolo[3,4-b]pyrrol-2-yl)-4(3H)-quinazolinone]?
IC50 [1]: 0.2 nM; IC50 [2]: 0.1 nM

`Cn1c(NC(C)(C)C)nc2c(-c3cc4n(c3)CCNC4=O)cccc2c1=O` [Example 449, 2-(tert-butylamino)-3-methyl-8-(1-oxo-1,2,3,4-tetrahydropyrrolo[1,2-a]pyrazin-7-yl)-4(3H)-quinazolinone] was tested. Which IC50 [1, 5] did it give?
The IC50 was 4.05 nM.

What does the source list for `Cc1nc2cccc(-c3cc4c([nH]3)[C@H](C)NC4=O)c2nc1NC(C)(C)C` [Example 327, (6S)-2-(3-(tert-butylamino)-2-methyl-5-quinoxalinyl)-6-methyl-5,6-dihydropyrrolo[3,4-b]pyrrol-4(1H)-one]?
IC50 [1, 5]: 2.02 nM; IC50 [2, 6]: 2.1 nM

How did the IC50 [1, 5] turn out when `Cn1c(NC(C)(C)C)nc2c(-c3cc4c([nH]3)C3(CC3)NC4=O)cccc2c1=O` [Example 456, 2′-(2-(tert-butylamino)-3-methyl-4-oxo-3,4-dihydro-8-quinazolinyl)-1′H-spiro[cyclopropane-1,6′-pyrrolo[3,4-b]pyrrol]-4′(5′H)-one] was run?
Its IC50 is 0.407 nM.

How did the IC50 [4] turn out when `CC1CNC(=O)c2cc(-c3cccc4ccc(Nc5ccccc5)nc34)[nH]c21` (single isomer, unassigned) [Example 30, 7-methyl-2-(2-(phenylamino)quinolin-8-yl)-6,7-dihydro-1H-pyrrolo[3,2-c]pyridin-4(5H)-one] was run?
Its IC50 is 23.7 nM.

How did the IC50 [1, 5] turn out when `Cc1nc2cccc(-c3cc4c([nH]3)CCNC4=O)c2nc1N[C@H]1C[C@H](N)C1` [Example 437, 2-(3-(((1r,3r)-3-aminocyclobutyl)amino)-2-methylquinoxalin-5-yl)-6,7-dihydro-1H-pyrrolo[3,2-c]pyridin-4(5H)-one hydrochloride] was run?
Its IC50 is 0.4 nM.

For `Cc1nc2cccc(-c3cc4c([nH]3)[C@@H](C)NC4=O)c2nc1NC(C)(C)C` [Example 326, (6R)-2-(3-(tert-butylamino)-2-methyl-5-quinoxalinyl)-6-methyl-5,6-dihydropyrrolo[3,4-b]pyrrol-4(1H)-one], which IC50 [1, 5] is on record?
The IC50 was 0.559 nM.

And the IC50 [2, 6]?
The IC50 was 0.618 nM.

What does the source list for `Cc1nc2cccc(-c3cc4c([nH]3)CCNC4=O)c2nc1N[C@H]1CCC[C@@H](N)C1` (single isomer, unassigned) [Example 141, 2-(3-((cis-3-aminocyclohexyl)amino)-2-methylquinoxalin-5-yl)-6,7-dihydro-1H-pyrrolo[3,2-c]pyridin-4(5H)-one]?
IC50 [3]: 3.7 nM; IC50 [1, 5]: 3.5 nM; IC50 [4]: 9.3 nM; IC50 [2, 6]: 1.3 nM

For `C[C@H]1NC(=O)c2cc(-c3c(F)ccc4c(=O)n(C)c(NC(C)(C)C)nc34)[nH]c21` [Example 405, 2-(tert-butylamino)-7-fluoro-3-methyl-8-((6R)-6-methyl-4-oxo-1,4,5,6-tetrahydropyrrolo[3,4-b]pyrrol-2-yl)-4(3H)-quinazolinone], which IC50 [1, 5] is on record?
The IC50 was 0.012 nM.

And the IC50 [2, 6]?
The IC50 was 0.012 nM.

For `CCC1CNC(=O)c2cc(-c3cccc4cc(C)c(Nc5ccccc5)nc34)[nH]c21` (single isomer, unassigned) [Example 118, 7-ethyl-2-(3-methyl-2-(phenylamino)quinolin-8-yl)-6,7-dihydro-1H-pyrrolo[3,2-c]pyridin-4(5H)-one], which IC50 [4] is on record?
Its IC50 is 16.1 nM.

With `CC(c1ccccc1)c1ccc2cccc(-c3cc4c([nH]3)CCNC4=O)c2n1` (single isomer, unassigned) [Example 115, 2-(2-(1-phenylethyl)quinolin-8-yl)-6,7-dihydro-1H-pyrrolo[3,2-c]pyridin-4(5H)-one] as the compound, how does the IC50 [3] read?
Its IC50 is 58.7 nM.

And the IC50 [4]?
Its IC50 is 122 nM.

With `Cc1nc2cccc(-c3[nH]c4c(c3Cl)C(=O)N[C@@H]4C)c2nc1NC(C)(C)C` [Example 455, (6R)-2-(3-(tert-butylamino)-2-methyl-5-quinoxalinyl)-3-chloro-6-methyl-5,6-dihydropyrrolo[3,4-b]pyrrol-4(1H)-one] as the compound, how does the IC50 [1, 5] read?
The IC50 was 1.43 nM.

And the IC50 [2, 6]?
Its IC50 is 0.849 nM.

With `CC1Cc2[nH]c(-c3cccc4ccc(Nc5ccccc5)nc34)cc2C(=O)N1` (single isomer, unassigned) [Example 33, 6-methyl-2-(2-(phenylamino)quinolin-8-yl)-6,7-dihydro-1H-pyrrolo[3,2-c]pyridin-4(5H)-one] as the compound, how does the IC50 [3] read?
The IC50 was 6.3 nM.

With `CC[C@@H]1CNC(=O)c2cc(-c3cccc4ccc(Nc5ccccc5)nc34)[nH]c21` [Example 25, (R)-7-ethyl-2-(2-(phenylamino)quinolin-8-yl)-6,7-dihydro-1H-pyrrolo[3,2-c]pyridin-4(5H)-one] as the compound, how does the IC50 [4] read?
The IC50 was 29.7 nM.

How did the IC50 [4] turn out when `CC[C@H]1CNC(=O)c2cc(-c3cccc4ccc(Nc5ccccc5)nc34)[nH]c21` [Example 239, (S)-7-ethyl-2-(2-(phenylamino)quinolin-8-yl)-6,7-dihydro-1H-pyrrolo[3,2-c]pyridin-4(5H)-one] was run?
Its IC50 is 2.8 nM.

How did the IC50 [1, 5] turn out when `C[C@H]1NC(=O)c2cc(-c3c(F)ccc4c(=O)n(C5CC5)c(NC5(C)CCC5)nc34)[nH]c21` [Example 498, 3-Cyclopropyl-7-fluoro-2-((1-methylcyclobutyl)amino)-8-((6R)-6-methyl-4-oxo-1,4,5,6-tetrahydropyrrolo[3,4-b]pyrrol-2-yl)-4(3H)-quinazolinone] was run?
The IC50 was 0.1 nM.

What does the source list for `Cc1nc2cccc(-c3cc4c([nH]3)[C@H](C)NC4=O)c2nc1NCC(F)F` [Example 383, (S)-2-(3-((2,2-difluoroethyl)amino)-2-methylquinoxalin-5-yl)-6-methyl-5,6-dihydropyrrolo[3,4-b]pyrrol-4(1H)-one]?
IC50 [1, 5]: 4.57 nM; IC50 [2, 6]: 3.7 nM

What does the source list for `CCn1c(NC(C)(C)C)nc2c(-c3cc4c([nH]3)[C@@H](C)NC4=O)cccc2c1=O` [Example 481, (R)-2-(tert-butylamino)-3-ethyl-8-(6-methyl-4-oxo-1,4,5,6-tetrahydropyrrolo[3,4-b]pyrrol-2-yl)quinazolin-4(3H)-one]?
IC50 [1]: 0.077 nM; IC50 [2]: 0.082 nM

How did the IC50 [3] turn out when `CC1Cc2[nH]c(-c3cccc4ccc(Nc5ccccc5)nc34)cc2C(=O)N1` (single isomer, unassigned) [Example 34, 6-methyl-2-(2-(phenylamino)quinolin-8-yl)-6,7-dihydro-1H-pyrrolo[3,2-c]pyridin-4(5H)-one] was run?
The IC50 was 18.4 nM.

`CCC1CNC(=O)c2cc(-c3cccc4cc(C)c(Nc5ccccc5)nc34)[nH]c21` (single isomer, unassigned) [Example 117, 7-ethyl-2-(3-methyl-2-(phenylamino)quinolin-8-yl)-6,7-dihydro-1H-pyrrolo[3,2-c]pyridin-4(5H)-one] was tested. Which IC50 [4] did it give?
The IC50 was 0.9 nM.

How did the IC50 [3] turn out when `CC(c1ccccc1)c1ccc2cccc(-c3cc4c([nH]3)CCNC4=O)c2n1` (single isomer, unassigned) [Example 116, 2-(2-(1-phenylethyl)quinolin-8-yl)-6,7-dihydro-1H-pyrrolo[3,2-c]pyridin-4(5H)-one] was run?
The IC50 was 7.6 nM.

What about the IC50 [4] of the same compound?
The IC50 was 17.8 nM.

Which IC50 [2, 6] does the source give for `Cc1nc2ccc(F)c(-c3cc4c([nH]3)[C@@H](C)NC4=O)c2nc1NC(C)(C)C` [Example 297, (6R)-2-(3-(tert-butylamino)-6-fluoro-2-methyl-5-quinoxalinyl)-6-methyl-5,6-dihydropyrrolo[3,4-b]pyrrol-4(1H)-one] here?
The IC50 was 0.116 nM.

`Cc1nc2cccc(-c3cc4c([nH]3)CCNC4=O)c2nc1N[C@H]1CCC[C@@H](N)C1` (single isomer, unassigned) [Example 140, 2-(3-((cis-3-aminocyclohexyl)amino)-2-methylquinoxalin-5-yl)-6,7-dihydro-1H-pyrrolo[3,2-c]pyridin-4(5H)-one] was tested. Which IC50 [3] did it give?
The IC50 was 0.8 nM.

What about the IC50 [1, 5] of the same compound?
Its IC50 is < 0.1 nM.

And the IC50 [4]?
The IC50 was 0.2 nM.

What about the IC50 [2, 6] of the same compound?
The IC50 was 0.3 nM.

For `Cc1nc2cccc(-c3cc4c([nH]3)CCNC4=O)c2nc1NC1CCC(=O)NC1` (racemic) [Example 199, rac-2-(2-methyl-3-((6-oxopiperidin-3-yl)amino)quinoxalin-5-yl)-6,7-dihydro-1H-pyrrolo[3,2-c]pyridin-4(5H)-one], which IC50 [2, 6] is on record?
The IC50 was 14.5 nM.
